Experimental: The solubility of the organic carboxylic acid strontium salts, were measured in water. The solubility of these salts was also measured as a function of temperature. This was performed by incubating the saturated solutions of the salts in temperature controlled incubators.
The buffered solutions were immersed into a bath of water temperature controlled at either room temperature (22-24° C.), at 30° C. or at 40° C. […] In order to eliminate any reminiscent strontium chloride influence on the determination of solubility, all the precipitate was collected at the bottom of the test tubes and the solutions above the precipitate were carefully removed and substituted by fresh solutions. […] From these solutions, the dissolved proportions of the strontium salt were collected in volumes of 1 mL at the specified temperature. The solutions were diluted to 50 mL before analysis by Flame Atomic Absorption Spectrometry (F-AAS).
Two methods were used for quantification of strontium in solutions: Flame Atomic Absorption Spectrometry (F-AAS), and the more sensitive inductively-coupled-plasmamass spectrometry (ICP-MS).
The solubilities were investigated as described above, and strontium content in the saturated solutions determined as described here below.
Some of the very soluble strontium salts were further diluted before analysis by F-AAS. The measurements were performed by using a Perkin-Elmer 2100 equipped with a hydrogen lamp for correction of the background signal. Strontium was measured at a slit with of 0.2 nm, the wavelength was 460.8 nm operated at an energy of 58 and a current of 8 mA.
This analysis was performed using a Perkin Elmer Elan 5000 system equipped with a cross-flow nebulizer. The power was set at 1000 W and the Argon-gas flow was 12 L/min and 0.8 L/min of the torch and plasma gas, respectively.

In the case of “strontium alpha-ketoglutarate [α-ketogluterate]”, the “SOLUBILITY AT 40° C., In water” value is reported as 3534 mg/L, the “SOLUBILITY AT ROOM TEMPERATURE (22-24° C.), In water” value is reported as 1316 Mg/L and the “SOLUBILITY AT ROOM TEMPERATURE (22-24° C.), pH 7.5” value (pH 7.5) is reported as 2252 Mg/L.

Source: patent US20130071496A1, “CONTROLLED RELEASE COMPOSITION CONTAINING A STRONTIUM SALT” (Osteologix A/S, priority 2003, published 2013)
